# Experimental data taken from patent US6774220B1, “Compounds having lectinic properties and their biological applications” (Association pour le Développement de la Biothérapie …, priority 1995, dated 2004).
# Test system: T (lympho) cells
# Experiment: Stimulation over 24 hours of the synthesis of DNA in T (lympho) cells
# Type: cell-based
# Conditions: IL2 (100 u) +M
# Method: XI Stimulation over 24 hours of the synthesis of DNA in T (lympho) cells
# The SCL is excreted in the H-1 medium by PBMC over 24 hours maintained without serum.
substance,measurement,value
IL2: interleukin-2,"synthesis of DNA, EXP. N° 1","4,081 ± 341"
same,"synthesis of DNA, EXP. N° 2","11,354 ± 772"
